Consider one compound from article PMC6792352, “Limited Chemical Structural Diversity Found to Modulate Thyroid Hormone Receptor in the Tox21 Chemical Library” (Environmental Health Perspectives, 2019).

Amino acid sequences for entries named in this document (tags omitted). Residues count along the entry.
UniProt P10827, 163-410 isoform P10827-2 limits assumed: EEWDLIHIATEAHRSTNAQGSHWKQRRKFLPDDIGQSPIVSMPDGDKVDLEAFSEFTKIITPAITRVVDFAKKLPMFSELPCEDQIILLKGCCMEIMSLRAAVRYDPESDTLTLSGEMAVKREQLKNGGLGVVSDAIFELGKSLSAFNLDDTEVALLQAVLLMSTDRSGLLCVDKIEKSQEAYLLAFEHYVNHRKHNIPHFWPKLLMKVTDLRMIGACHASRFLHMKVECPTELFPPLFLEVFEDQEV

Experiment [1] has as its target T1, TRα ligand-binding domain (Homo sapiens, UniProt P10827).
T1 construct: the receptor LBDs expressed as glutathione S-transferase (GST) fusion proteins; purchased
Briefly: TRa-coa LanthaScreen TR-FRET coactivator (SRC-2 peptide) recruitment, agonist (TOX21_TRA_COA_Agonist_Followup_ratio, aeid 2230). It is filed as biochemical. The conditions noted are these: cell-free coactivator recruitment; read-out: TRa-coa-Ag AC50. (Time-resolved FRET reads energy transfer from a long-lived donor to a nearby acceptor.)

In experiment [2] the target is T2, human TRβ ligand-binding domain (Homo sapiens, UniProt P10828).
T2 sequence (P10828 217-461 limits assumed): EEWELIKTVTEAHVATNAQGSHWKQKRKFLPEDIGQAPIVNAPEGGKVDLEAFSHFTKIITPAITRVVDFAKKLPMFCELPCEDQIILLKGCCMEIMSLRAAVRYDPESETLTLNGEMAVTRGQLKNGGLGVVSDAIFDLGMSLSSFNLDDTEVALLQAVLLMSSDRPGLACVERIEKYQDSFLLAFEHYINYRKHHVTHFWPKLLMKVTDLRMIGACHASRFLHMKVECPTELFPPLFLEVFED
Briefly: TRb-coa LanthaScreen TR-FRET coactivator (SRC-2 peptide) recruitment, agonist (TOX21_TRB_COA_Agonist_Followup_ratio, aeid 2244). The conditions noted are these: cell-free coactivator recruitment; read-out: TRb-coa-Ag AC50. The arrangement: host or cells: GeneBLAzer UAS-bla HEK 293T. It is filed as biochemical.

Experiment [3] deals with T2, human TRβ ligand-binding domain. The experiment is described as follows: TRb-bla agonist mammalian one-hybrid beta-lactamase assay (TOX21_TRB_BLA_Agonist_Followup_ratio, aeid 2236).

A word on the AC50: it is the concentration giving half of the maximal activity seen. Regarding `N[C@@H](Cc1ccc(Oc2cc(I)c(O)c(I)c2)c(I)c1)C(=O)O` [3,3ʹ,5ʹ-Triiodo-L-thyronine], the AC50 in experiment [1] worked out at 707 nM; in experiment [2], 1000 nM; in experiment [3] it was 641 nM.
